From US12240855B2, “Pyrrolopyrazole derivative” (DAIICHI SANKYO COMPANY, LIMITED, priority 2019, dated 2025)

Legend:
HCT116 cells = experiment: cells; conditions: Homo sapiens, HCT-116, 72 h, read-out: Test Example 3 HCT116 GI50
[1] = test system: PTDSS2 gene-disrupted (PTDSS2-KO) HCT116 cells; experiment: cells; conditions: Homo sapiens, HCT-116, 72 h, read-out: Test Example 3 PTDSS2-KO HCT116 GI50

Row | SMILES | GI50 (HCT116 cells) | GI50 [1]
1 | Cc1cc(OC(F)(F)F)ccc1Oc1ccc(C2c3c(-c4cccc5[nH]c(=O)oc45)n[nH]c3C(=O)N2CC(C)(F)F)cc1 (single isomer, unassigned) [Example 43, 7-[5-(2,2-Difluoropropyl)-4-{4-[2-methyl-4-(trifluoromethoxy)phenoxy]phenyl}-6-oxo-1,4,5,6-tetrahydropyrrolo[3,4-c]pyrazol-3-yl]-1,3-benzoxazol-2(3H)-one (enantiomer)] | 7.9 µM | 0.049 µM
2 | CC(F)(F)CN1C(=O)c2[nH]nc(-c3cccc4[nH]c(=O)oc34)c2C1c1ccc(Sc2ccc(OC(F)(F)F)cc2)cc1 (single isomer, unassigned) [Example 44, 7-[5-(2,2-Difluoropropyl)-6-oxo-4-(4-{[4-(trifluoromethoxy)phenyl]sulfanyl}phenyl)-1,4,5,6-tetrahydropyrrolo[3,4-c]pyrazol-3-yl]-1,3-benzoxazol-2(3H)-one (enantiomer)] | 3.9 µM | 0.019 µM
3 | Cc1cc(Oc2ccc(C3c4c(-c5cccc6[nH]c(=O)oc56)n[nH]c4C(=O)N3CC(C)(F)F)cc2)cc(C(F)(F)F)c1 (single isomer, unassigned) [Example 45, 7-[5-(2,2-Difluoropropyl)-4-{4-[3-methyl-5-(trifluoromethyl)phenoxy]phenyl}-6-oxo-1,4,5,6-tetrahydropyrrolo[3,4-c]pyrazol-3-yl]-1,3-benzoxazol-2(3H)-one (enantiomer)] | 8.4 µM | 0.016 µM
4 | CC(F)(F)CN1C(=O)c2[nH]nc(-c3cccc4[nH]c(=O)oc34)c2C1c1ccc(Oc2ccc(C(F)(F)F)cc2)cc1 (single isomer, unassigned) [Example 46, 7-[5-(2,2-Difluoropropyl)-6-oxo-4-{4-[4-(trifluoromethyl)phenoxy]phenyl}-1,4,5,6-tetrahydropyrrolo[3,4-c]pyrazol-3-yl]-1,3-benzoxazol-2(3H)-one (enantiomer)] | 8 µM | 0.04 µM
5 | CC(F)(F)CN1C(=O)c2[nH]nc(-c3cccc4[nH]c(=O)oc34)c2C1c1ccc(Oc2ccc(SC(F)(F)F)cc2)cc1 (single isomer, unassigned) [Example 47, 7-[5(2,2-Difluoropropyl)-6-oxo-4-(4-{4-[(trifluoromethyl)sulfanyl]phenoxy}phenyl)-1,4,5,6-tetrahydropyrrolo[3,4-c]pyrazol-3-yl]-1,3-benzoxazol-2(3H)-one (enantiomer)] | 7.5 µM | 0.04 µM
6 | CC(F)(F)CN1C(=O)c2[nH]nc(-c3cccc4[nH]c(=O)oc34)c2C1c1ccc(Oc2cc(Cl)c(OC(F)(F)F)c(Cl)c2)cc1 (single isomer, unassigned) [Example 48, 7-[4-{4-[3,5-Dichloro-4-(trifluoromethoxy)phenoxy]phenyl}-5-(2,2-difluoropropyl)-6-oxo-1,4,5,6-tetrahydropyrrolo[3,4-c]pyrazol-3-yl]-1,3-benzoxazol-2(3H)-one (enantiomer)] | 7.8 µM | 0.017 µM
7 | CC(F)(F)CN1C(=O)c2[nH]nc(-c3cccc4[nH]c(=O)oc34)c2C1c1ccc(Oc2cc(Cl)cc(C(F)(F)F)c2)cc1 (single isomer, unassigned) [Example 49, 7-[4-{4-[3-Chloro-5-(trifluoromethyl)phenoxy]phenyl}-5-(2,2-difluoropropyl)-6-oxo-1,4,5,6-tetrahydropyrrolo[3,4-c]pyrazol-3-yl]-1,3-benzoxazol-2(3H)-one (enantiomer)] | 7.8 µM | 0.016 µM
8 | CC(F)(F)CN1C(=O)c2[nH]nc(-c3cccc4[nH]c(=O)oc34)c2C1c1ccc(Oc2ccc(C(F)(F)F)c(C(F)(F)F)c2)cc1 (single isomer, unassigned) [Example 50, 7-[4-{4-[3,4-Bis(trifluoromethyl)phenoxy]phenyl}-5-(2,2-difluoropropyl)-6-oxo-1,4,5,6-tetrahydropyrrolo[3,4-c]pyrazol-3-yl]-1,3-benzoxazol-2(3H)-one (enantiomer)] | 6.5 µM | 0.018 µM
9 | CC(F)(F)CN1C(=O)c2[nH]nc(-c3cccc4[nH]c(=O)oc34)c2C1c1ccc(Oc2ccc(S(=O)(=O)C(F)(F)F)cc2)cc1 (single isomer, unassigned) [Example 51, 7-[5-(2,2-Difluoropropyl)-6-oxo-4-{4[4-(trifluoromethanesulfonyl)phenoxy]phenyl}-1,4,5,6-tetrahydropyrrolo[3,4-c]pyrazol-3-yl]-1,3-benzoxazol-2(3H)-one (enantiomer)] | 5.4 µM | 0.14 µM
10 | CC(F)(F)CN1C(=O)c2[nH]nc(-c3cccc4[nH]c(=O)oc34)c2C1c1ccc(Oc2ccc(OC(F)(F)F)cc2Cl)cc1 (single isomer, unassigned) [Example 52, 7-[4-{4-[2-Chloro-4-(trifluoromethoxy)phenoxy]phenyl}-5-(2,2-difluoropropyl)-6-oxo-1,4,5,6-tetrahydropyrrolo[3,4-c]pyrazol-3-yl]-1,3-benzoxazol-2(3H)-one (enantiomer)] | 5.9 µM | 0.063 µM
11 | CC(F)(F)CN1C(=O)c2[nH]nc(-c3cccc4[nH]c(=O)oc34)c2C1c1cc(Oc2ccc(F)cc2)cc(C(F)(F)F)c1 (single isomer, unassigned) [Example 54, 7-{5-(2,2-Difluoropropyl)-4-[3-(4-fluorophenoxy)-5-(trifluoromethyl)phenyl]-6-oxo-1,4,5,6-tetrahydropyrrolo[3,4-c]pyrazol-3-yl}-1,3-benzoxazol-2(3H)-one (enantiomer)] | 11 µM | 0.014 µM
12 | CC(F)(F)CN1C(=O)c2[nH]nc(-c3cccc4[nH]c(=O)oc34)c2C1c1cccc(Oc2ccc(OC(F)(F)F)cc2)c1 (single isomer, unassigned) [Example 55, 7-[5-(2,2-Difluoropropyl)-6-oxo-4-{3-[4-(trifluoromethoxy)phenoxy]phenyl}-1,4,5,6-tetrahydropyrrolo[3,4-c]pyrazol-3-yl]-1,3-benzoxazol-2(3H)-one (enantiomer)] | 8.9 µM | 0.027 µM
13 | CC(F)(F)CN1C(=O)c2[nH]nc(-c3cc(F)cc4[nH]c(=O)oc34)c2C1c1cccc(Oc2ccc(F)cc2)c1 (single isomer, unassigned) [Example 56, 7-{5-(2,2-Difluoropropyl)-4-[3-(4-fluorophenoxy)phenyl]-6-oxo-1,4,5,6-tetrahydropyrrolo[3,4-c]pyrazol-3-yl}-5-fluoro-1,3-benzoxazol-2(3H)-one (enantiomer)] | 21 µM | 0.052 µM
14 | CC(F)(F)CN1C(=O)c2[nH]nc(-c3cccc4[nH]c(=O)oc34)c2C1c1ccc(Oc2ccc(Cl)c(Cl)c2)cc1 (single isomer, unassigned) [Example 59, 7-[4-[4-(3,4-Dichlorophenoxy)phenyl]-5-(2,2-difluoropropyl)-6-oxo-1,4,5,6-tetrahydropyrrolo[3,4-c]pyrazol-3-yl]-1,3-benzoxazol-2(3H)-one (enantiomer)] | 8.2 µM | 0.026 µM
15 | CC(F)(F)CN1C(=O)c2[nH]nc(-c3cccc4[nH]c(=O)oc34)c2C1c1ccc(Oc2ccc(Cl)cc2)c(Cl)c1 (single isomer, unassigned) [Example 60, 7-{4-[3-Chloro-4-(4-chlorophenoxy)phenyl]-5-(2,2-difluoropropyl)-6-oxo-1,4,5,6-tetrahydropyrrolo[3,4-c]pyrazol-3-yl}-1,3-benzoxazol-2-(3H)-one (enantiomer)] | 3.5 µM | 0.059 µM
